Where two headings read alike, the source gives them in different places.
Target: cloned human MC4R (Homo sapiens, UniProt P32245)
Test: Membrane binding assay: competitive inhibition of [125I]NDP-α-MSH binding
Settings: for Displacement Rate (%) (at 10 μM): [125I]NDP-α-MSH displacement; for IC50: read-out: MC4R IC50

Amino acid sequences for entries named in this document (tags omitted).
UniProt P32245, whole entry: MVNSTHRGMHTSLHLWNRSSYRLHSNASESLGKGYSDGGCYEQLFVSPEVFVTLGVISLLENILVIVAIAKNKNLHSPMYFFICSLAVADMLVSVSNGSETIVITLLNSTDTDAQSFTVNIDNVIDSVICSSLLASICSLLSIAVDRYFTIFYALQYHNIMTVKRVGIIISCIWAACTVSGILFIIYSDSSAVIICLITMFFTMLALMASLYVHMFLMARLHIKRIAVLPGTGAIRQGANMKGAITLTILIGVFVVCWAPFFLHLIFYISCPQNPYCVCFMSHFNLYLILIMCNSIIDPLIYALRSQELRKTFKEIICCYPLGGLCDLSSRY

Compound | Displacement Rate (%) (at 10 μM) (tested form: bis-TFA) | IC50 (tested form: bis-TFA) | Displacement Rate (%) (at 10 μM) (tested form: TFA) | IC50 (tested form: TFA) | also measured
N[C@@H](Cc1ccc(OCc2ccccc2CCc2ccccc2)cc1)C(=O)N1CCN(Cc2cccc(Cl)c2Cl)CC1 | +++ (+++ = 91-100) | < 1.5 µM |  |  | 
N[C@@H](Cc1ccc(OCCOc2ccccc2Cl)cc1)C(=O)N1CCN(Cc2cccc(Cl)c2Cl)CC1 |  |  | +++ (+++ = 91-100) | 1.5 to 3 µM | 
N[C@@H](Cc1ccc(OCCCOc2ccccc2)cc1)C(=O)N1CCN(Cc2cccc(Cl)c2Cl)CC1 |  |  | +++ (+++ = 91-100) | < 1.5 µM | 
N[C@@H](Cc1ccc(OC2CCCC2)cc1)C(=O)N1CCN(Cc2cccc(Cl)c2Cl)CC1 | +++ (+++ = 91-100) | 1.5 to 3 µM |  |  | 
N[C@@H](Cc1ccc(OCCc2ccsc2)cc1)C(=O)N1CCN(Cc2cccc(Cl)c2Cl)CC1 |  |  | +++ (+++ = 91-100) | < 1.5 µM | 
N[C@@H](Cc1ccc(OCCOc2ccccc2)cc1)C(=O)N1CCN(Cc2cccc(Cl)c2Cl)CC1 |  |  | +++ (+++ = 91-100) | < 1.5 µM | 
CCOc1ccccc1-c1ccc(C[C@H](N)C(=O)N2CCN(Cc3cccc(Cl)c3Cl)CC2)cc1 |  |  |  |  | Displacement Rate (%) (at 10 μM) (tested form: HCl): +++ (+++ = 91-100); IC50 (tested form: HCl): 1.5 to 3 µM
N[C@@H](Cc1ccc(OCCOc2c(F)c(F)c(F)c(F)c2F)cc1)C(=O)N1CCN(Cc2cccc(Cl)c2Cl)CC1 |  |  |  |  | Displacement Rate (%) (at 10 μM) (tested form: TFA salt): +++ (+++ = 91-100); IC50 (tested form: TFA salt): < 1.5 µM
CC(C)SCCOc1ccc(C[C@H](N)C(=O)N2CCN(Cc3cccc(Cl)c3Cl)CC2)cc1 | ++ (++ = 71-90) | 1.5 to 3 µM |  |  | 
CC(C)(C)CCOc1ccc(C[C@H](N)C(=O)N2CCN(Cc3cccc(Cl)c3Cl)CC2)cc1 | +++ (+++ = 91-100) | < 1.5 µM |  |  | 
N[C@@H](Cc1ccc(OCCCC2CCCC2)cc1)C(=O)N1CCN(Cc2cccc(Cl)c2Cl)CC1 |  |  | +++ (+++ = 91-100) | < 1.5 µM | 
CCCCCCOc1ccc(C[C@H](N)C(=O)N2CCN(Cc3cccc(Cl)c3Cl)CC2)cc1 |  |  | +++ (+++ = 91-100) | < 1.5 µM | 
N[C@@H](Cc1ccc(OCCc2cccs2)cc1)C(=O)N1CCN(Cc2cccc(Cl)c2Cl)CC1 |  |  | +++ (+++ = 91-100) | < 1.5 µM | 
CC(C)CCOc1ccc(C[C@H](N)C(=O)N2CCN(Cc3cccc(Cl)c3Cl)CC2)cc1 | +++ (+++ = 91-100) | < 1.5 µM |  |  | 
Cc1cccc(OCCOc2ccc(C[C@H](N)C(=O)N3CCN(Cc4cccc(Cl)c4Cl)CC3)cc2)c1 |  |  | +++ (+++ = 91-100) | < 1.5 µM | 
N[C@@H](Cc1ccc(OCCSc2ccccc2)cc1)C(=O)N1CCN(Cc2cccc(Cl)c2Cl)CC1 |  |  | +++ (+++ = 91-100) | 1.5 to 3 µM | 
N[C@@H](Cc1ccc(OCC2CCCC2)cc1)C(=O)N1CCN(Cc2cccc(Cl)c2Cl)CC1 |  |  | +++ (+++ = 91-100) | < 1.5 µM | 
CC(C)c1cccc(-c2ccc(C[C@H](N)C(=O)N3CCN(Cc4cccc(Cl)c4Cl)CC3)cc2)c1 |  |  |  |  | Displacement Rate (%) (at 10 μM) (tested form: HCl): +++ (+++ = 91-100); IC50 (tested form: HCl): < 1.5 µM
N[C@@H](Cc1ccc(OCC2CC2)cc1)C(=O)N1CCN(Cc2cccc(Cl)c2Cl)CC1 | ++ (++ = 71-90) | > 3 µM |  |  | 
